Data taken from patent US20260174734A1, “PHARMACEUTICAL COMPOSITION” (MEXICHEM FLUOR S.A. DE C.V., priority 2016, published 2026).

Test: In vitro aerosolization performance from MDI (Next Generation Impactor)
Assay type: physicochemical
Settings: HFA-152a propellant, T = 0, combination formulation
Description: The nominal dose of glycopyrronium bromide was 50 μg, the nominal dose of indacaterol was 100 μg and the nominal dose of fluticasone propionate was 125 μg.

- FPFED (%) fine particle fraction of the emitted dose: 46.5 ± 2.9%
Compound: C[N+]1(C)CCC(OC(=O)C(O)(c2ccccc2)C2CCCC2)C1 (stereo not shown) [Glycopyrronium Bromide, glycopyrronium bromide]
